Measured values from ChEMBL document CHEMBL5385906, “Discovery of a Potent, Selective, and Orally Bioavailable Tool Compound for Probing the Role of Lysophosphatidic Acid Type 2 Receptor Antagonists in Fibrotic Disorders” (J Med Chem, 2023).

Columns and labels:
[1] = Apparent permeability across apical to basolateral side in human Caco-2 cells at 10 uM measured after 60 mins by LC-MS/MS analysis; assay type: ADME, cell-based; conditions: caco-2, 1 h
[2] = Free AUC last in C57BL/6J mouse plasma at 30 mg/kg, po and 1.5 mg/kg, iv by LC-MS/MS analysis; assay type: ADME, organism-based; conditions: in vivo
[3] = Time of last measurable concentration in C57BL/6J mouse lungs at 30 mg/kg, po and 1.5 mg/kg, iv by UPLC-MS/MS analysis; assay type: ADME, organism-based, Lung; conditions: in vivo
[4] = Time of last measurable concentration in C57BL/6J mouse plasma at 30 mg/kg, po and 1.5 mg/kg, iv by UPLC-MS/MS analysis; assay type: ADME, organism-based; conditions: in vivo
[5] = Free Cmax in C57BL/6J mouse lungs at 30 mg/kg, po and 1.5 mg/kg, iv by LC-MS/MS analysis; assay type: ADME, organism-based, Lung; conditions: in vivo
[6] = Free Cmax in C57BL/6J mouse plasma at 30 mg/kg, po and 1.5 mg/kg, iv by LC-MS/MS analysis; assay type: ADME, organism-based; conditions: in vivo
[7] = Volume of distribution at steady state in C57BL/6J mouse at 30 mg/kg, po and 1.5 mg/kg, iv by LC-MS/MS analysis; assay type: ADME, organism-based; conditions: in vivo
[8] = Free AUC last in C57BL/6J mouse lungs at 30 mg/kg, po and 1.5 mg/kg, iv by LC-MS/MS analysis; assay type: ADME, organism-based, Lung; conditions: in vivo
[9] = Intrinsic clearance in human liver microsomes at 0.5 uM in presence of NADPH regenerating system measured for 45 mins per mg protein by LC-MS/MS analysis; assay type: ADME, Microsome; conditions: 0.75 h
[10] = Volume of distribution at steady state in C57BL/6J mouse at 30 mg/kg, po and 2 mg/kg, iv by LC-MS/MS analysis; assay type: ADME, organism-based; conditions: in vivo
[11] = Time of last measurable concentration in C57BL/6J mouse lungs at 30 mg/kg, po and 2 mg/kg, iv by UPLC-MS/MS analysis; assay type: ADME, organism-based, Lung; conditions: in vivo
[12] = Free Cmax in C57BL/6J mouse lungs at 30 mg/kg, po and 2 mg/kg, iv by LC-MS/MS analysis; assay type: ADME, organism-based, Lung; conditions: in vivo
[13] = Free AUC last in C57BL/6J mouse lungs at 30 mg/kg, po and 2 mg/kg, iv by LC-MS/MS analysis; assay type: ADME, organism-based, Lung; conditions: in vivo
[14] = Free AUC last in C57BL/6J mouse plasma at 30 mg/kg, po and 2 mg/kg, iv by LC-MS/MS analysis; assay type: ADME, organism-based; conditions: in vivo
[15] = Free Cmax in C57BL/6J mouse plasma at 30 mg/kg, po and 2 mg/kg, iv by LC-MS/MS analysis; assay type: ADME, organism-based; conditions: in vivo
[16] = Time of last measurable concentration in C57BL/6J mouse plasma at 30 mg/kg, po and 2 mg/kg, iv by UPLC-MS/MS analysis; assay type: ADME, organism-based; conditions: in vivo

## COC(=O)Nc1nc(C)c(S(=O)(=O)N2CCN(C[C@H](C)Nc3ncnc4c(C(=O)N(C)C)cccc34)CC2)s1
[1]
  Papp: Bld

## COC(=O)Nc1nc(C)c(S(=O)(=O)N2CCN(C[C@H](C)Nc3ncnc4c(-c5ccc(F)c(CN(C)C)c5)cccc34)CC2)s1
[2]
  fAUClast: 1281 ng·h/mL
[3]
  Tlast: 24 h
[4]
  Tlast: 24 h
[5]
  fCmax: 484 ng/mL
[6]
  fCmax: 235 ng/mL
[7]
  Vdss: 0.28 L/kg
[8]
  fAUClast: 4300 ng·h/mL

## Cc1nc(NC(C)CN2CCN(S(=O)(=O)c3ccc(Cl)c(Cl)c3)CC2)c2scc(C)c2n1 (stereo in doubt; 36b)
[9]
  CLH: 390 µL/min

## COC(=O)Nc1nc(C)c(S(=O)(=O)N2CCN(C[C@H](C)Nc3ncnc4c(-c5cccnc5)cccc34)CC2)s1
[10]
  Vdss: 0.21 L/kg
[11]
  Tlast: 8 h
[12]
  fCmax: 174 ng/mL
[13]
  fAUClast: 240 ng·h/mL
[14]
  fAUClast: 110 ng·h/mL
[15]
  fCmax: 90 ng/mL
[16]
  Tlast: 8 h
